The text below walks through data of patent US9956204B2, “Composition for exterminating scuticociliates in fish including mebendazole” (NATIONAL INSTITUTE OF FISHERIES SCIENCE, priority 2016, dated 2018).

The test system of assay [1] is scuticociliates. Kind of assay: Scuticociliates extermination effect of candidate substances in seawater medium. The assay is classed as cell-based. As to the method:
For this, scuticociliates were cultured in CHSE-214 cell line (using MEM medium), and then scuticociliates were collected and centrifuged with sterilized seawater or artificial seawater (20‰) to replace them with a seawater medium. Each of 100 μl (1×10^5) was dispensed into each well of 96 wells, followed by further culture for 30 minutes. The candidate substances diluted in seawater to have a volume of 100 μl per each concentration were mixed with scuticociliates to have the final volume of 200 μl and cultured for 4 hour.

The test system of assay [2] is scuticociliates. Kind of assay: Scuticociliates extermination effect of candidate substances in MEM medium. The assay is classed as cell-based. On the procedure: CHSE-214 cell line into which scuticociliates were inoculated was cultured in advance. The CHSE-214 cell line was cultured in an incubator using an MEM medium at 22° C. Scuticociliates inoculated into the cell line proliferated for 3 days by which the number reaches to be capable of analyzing in vitro anti-scuticociliates effect. Scuticociliates that feed on the cell line and sufficiently grow were mixed with the candidate substance and the activity of scuticociliates was measured.
In order to analyze the antiparasitic activity of the above 19 types of candidate substances of scuticociliates extermination drugs, scuticociliates were cultured for 3 days, and 100 μl (1×10^5) was dispensed into each well of 96 wells. The candidate substances were diluted by each concentration and the final volume was dispensed into 100 μl. Thereafter, the two were mixed and finally made into 200 μl.

As to `COCC(=O)Nc1cc(Sc2ccccc2)ccc1N/C(=N\C(=O)OC)NC(=O)OC` [Febantel], the “Survival or Death of scuticociliates (activity and shape, microscope)” value in assay [1] and in assay [2] was “Survival” in each case.
